Laboratory results reported in ChEMBL document CHEMBL5131572, “Identification of a Potent, Selective, and Brain-Penetrant Rho Kinase Inhibitor and its Activity in a Mouse Model of Huntington's Disease” (J Med Chem, 2022).

By UniProt entry, the sequences of proteins in these tests, tags left out. Where a name states a change or a piece, a line headed by the entry shows the natural chain unless it says otherwise.
UniProt O75116: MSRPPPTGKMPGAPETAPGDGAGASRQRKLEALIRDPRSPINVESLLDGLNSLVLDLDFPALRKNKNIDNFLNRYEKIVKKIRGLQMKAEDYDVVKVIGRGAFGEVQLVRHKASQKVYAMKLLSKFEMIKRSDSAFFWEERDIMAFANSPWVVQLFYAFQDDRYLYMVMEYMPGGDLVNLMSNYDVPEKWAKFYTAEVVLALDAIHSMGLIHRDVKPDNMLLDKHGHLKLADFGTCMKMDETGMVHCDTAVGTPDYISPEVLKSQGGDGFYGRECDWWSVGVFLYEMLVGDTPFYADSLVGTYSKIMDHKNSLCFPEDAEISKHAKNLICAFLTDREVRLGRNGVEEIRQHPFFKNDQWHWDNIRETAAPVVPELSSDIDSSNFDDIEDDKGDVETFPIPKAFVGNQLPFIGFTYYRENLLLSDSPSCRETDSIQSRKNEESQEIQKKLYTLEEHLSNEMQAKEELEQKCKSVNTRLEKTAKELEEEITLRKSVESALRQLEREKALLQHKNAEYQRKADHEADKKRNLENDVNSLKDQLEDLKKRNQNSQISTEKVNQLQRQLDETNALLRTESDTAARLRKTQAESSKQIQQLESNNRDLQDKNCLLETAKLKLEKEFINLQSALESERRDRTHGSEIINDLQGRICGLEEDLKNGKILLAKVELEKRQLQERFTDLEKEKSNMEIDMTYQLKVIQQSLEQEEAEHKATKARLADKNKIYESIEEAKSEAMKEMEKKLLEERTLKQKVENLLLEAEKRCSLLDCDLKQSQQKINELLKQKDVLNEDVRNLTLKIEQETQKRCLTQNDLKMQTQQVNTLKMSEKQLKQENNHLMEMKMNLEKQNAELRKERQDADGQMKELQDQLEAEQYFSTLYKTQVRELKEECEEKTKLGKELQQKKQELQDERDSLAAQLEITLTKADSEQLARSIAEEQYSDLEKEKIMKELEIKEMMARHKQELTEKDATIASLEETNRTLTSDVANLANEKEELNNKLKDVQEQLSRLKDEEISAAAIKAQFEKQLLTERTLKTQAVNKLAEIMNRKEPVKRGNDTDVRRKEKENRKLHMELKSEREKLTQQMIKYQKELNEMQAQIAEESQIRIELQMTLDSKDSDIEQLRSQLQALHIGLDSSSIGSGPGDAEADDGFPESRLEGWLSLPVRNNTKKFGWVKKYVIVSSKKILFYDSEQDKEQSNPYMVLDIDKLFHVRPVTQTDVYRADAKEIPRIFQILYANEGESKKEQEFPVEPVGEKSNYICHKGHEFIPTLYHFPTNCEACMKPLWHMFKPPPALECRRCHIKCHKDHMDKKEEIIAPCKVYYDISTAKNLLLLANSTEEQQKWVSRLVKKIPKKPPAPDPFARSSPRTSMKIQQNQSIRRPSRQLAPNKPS

How the values were obtained:
[1] = target: T1, Rho-associated protein kinase 2 (Homo sapiens, UniProt O75116); test: Displacement of PRO22 from recombinant human ROCK2 (6 to 553 residues) assessed as Kon
[2] = target: T1, Rho-associated protein kinase 2; test: Displacement of PRO22 from recombinant human ROCK2 (6 to 553 residues) assessed as residence time
[3] = target: T1, Rho-associated protein kinase 2; test: Displacement of PRO22 from recombinant human ROCK2 (6 to 553 residues) assessed as Koff

Structure (SMILES): COc1cccc([C@@H](C)NC(=O)N2CCN(c3ccncc3F)C[C@H]2C)c1
- K [1]: 4.06 10^5/s
- TIME [2]: 0.212 h
- K [3]: 1.31 10^-3/s
